Data from patent US8911805B2, “Calcium preparation and method of production thereof” (Toyo Suisan Kaisha, Ltd., priority 2010, dated 2014).
“And” between values parts separate entries of the source, which are not always exact repeats. Equal entries are not always repeated.

Assay: Test for confirming solubility rate (time until transparent in water)
Format: physicochemical
Conditions: 300 rpm, calcium concentration 50 mM

With calcium gluconate as the substance, how does the “Dissolution time, Average” value (average of three runs, 50 mL DW) read?
Its value is 446.7 s.

What about the Dissolution time (single runs 1-3, 50 mL DW) of the same substance?
The Dissolution time was 450 s and 433 s and 457 s.
